Measurements: PubChem BioAssay AID493131 (Broad Institute, 2011)
The entries are a selection whose mix differs from that of the whole data set. The source made the active and inactive calls.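 Rule for the calls: active = mean activation above about 17%, with every replicate also reaching it (limit read from the data, passing the limit was not always enough); inconclusive = only one of the two conditions met; inactive = the rest.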

Sequences of proteins named here, by UniProt entry; tags and fusion partners are left off.
UniProt P13346, whole entry: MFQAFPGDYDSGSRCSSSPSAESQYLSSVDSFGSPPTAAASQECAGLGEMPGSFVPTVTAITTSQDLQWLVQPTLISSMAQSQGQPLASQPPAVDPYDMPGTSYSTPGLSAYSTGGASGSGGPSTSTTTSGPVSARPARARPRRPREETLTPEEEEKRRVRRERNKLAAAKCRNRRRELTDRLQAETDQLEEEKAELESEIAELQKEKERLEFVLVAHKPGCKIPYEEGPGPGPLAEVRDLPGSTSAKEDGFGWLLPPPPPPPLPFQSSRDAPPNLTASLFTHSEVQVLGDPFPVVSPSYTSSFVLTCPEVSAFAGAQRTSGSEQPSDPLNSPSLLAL

Biological target: Protein FosB (Mus musculus) (UniProt P13346)
Test: enhancers of mouse delta FosB DNA binding – biochemical, fluorescence polarization, TAMRA-CDK5 oligo, single point, primary screen (AID 493131);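 note: fluorescence polarization rise as delta FosB binds a TAMRA Cdk5 AP-1 oligo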
Conditions: purified delta FosB, at 25 µM, hits give high values, percent of positive-control signal above neutral wells

SMILES	activation
CCC(CO)(C(=O)OC1CN2CCC1CC2)c1ccccc1 (stereo not drawn)	inactive: -0.702%
COc1cccc(C(=O)N(c2cc(C)cc(C)c2)C2CCN(C(=O)OC(C)(C)C)CC2)c1	inactive: -14.7%
COc1cc(OC)cc(C(=O)NCC2(N3CCOCC3)CCCCC2)c1	inactive: -6.22%
CN1CCC(Nc2ccc(Cl)cc2)CC1	inactive: 6.71%
CCOc1ncccc1C(=O)NCC1(N2CCOCC2)CCCCC1	inactive: -4.82%
CN1CCC(Nc2ccc(F)c(Cl)c2)CC1	inactive: -4.1%
CCCOc1ccc(C(=O)NCC2(N(C)C)CCCCC2)cc1	inactive: -3.11%
CC(C)(C)OC(=O)N1CCC(Nc2ccccc2)CC1	inactive: -10.9%
O=C(O)C1(Nc2ccccc2)CCN(Cc2ccccc2)CC1	inactive: -10.5%
Cc1ccccc1NC1(C#N)CCN(Cc2ccccc2)CC1	inactive: -0.168%
CCN1CCC(Nc2cccc(F)c2)CC1	inactive: -2.55%
CN(C)c1ccc(C(=O)NCC2(N3CCCCC3)CCCCC2)cc1	inactive: 1.87%
Cn1c(=O)[nH]cc(N(CCCl)CCCl)c1=O	inactive: 3.79%
COc1cc(OC)cc(C(=O)NCC2(N3CCCCC3)CCCCC2)c1	inactive: -3.37%
CC(=O)N(c1ccccc1)C1CCNCC1	inactive: -2.68%
Cc1ccc(NC2(C#N)CCN(Cc3ccccc3)CC2)cc1	inactive: 0.847%
Cc1ccc(C(=O)NCC2(N3CCCCC3)CCCCC2)o1	inactive: -3.8%
Fc1ccccc1NC1CCN(Cc2ccccc2)CC1	inactive: -4.19%
c1ccc(CN2CCC(Nc3ccccc3)CC2)cc1	inactive: -1.13%
Cc1cc(N(CCCl)CCCl)ccc1C=O	inactive: 2.95%
CCCN1CCC(Nc2cc(OC)cc(OC)c2)CC1	inactive: 1.44%
CN(C)C1(CNC(=O)c2cccc(C#N)c2)CCCCC1	inactive: 6.96%
CC(C)(C)OC(=O)N1CCC(N(C(=O)c2ccccc2)c2ccc(Cl)cc2)CC1	inactive: -10.3%
N#Cc1ccc(C(=O)NCC2(N3CCCCC3)CCCCC2)cc1	inactive: -3.08%
N/C(=N\O)c1c(N)no[n+]1[O-]	inactive: -2.76%

SMILES	activation
CCOC(=O)N1CCC(Nc2ccc(C)cc2)CC1	inactive: 0.38%
O=C(OC1CN2CCC1CC2)C1c2ccccc2C=Cc2ccccc21 (stereo not drawn)	inactive: -0.474%
O=C(NCC1(N2CCOCC2)CCCCC1)c1cc(Br)ccc1Cl	inactive: -3.71%
COc1cc(C(=O)NCC2(N3CCOCC3)CCCCC2)cc(OC)c1C	inactive: 0.559%
COc1ccc(C(=O)NCC2(N3CCOCC3)CCCCC2)cc1OC	inactive: -3.97%
CN1CCC(Nc2cccc(F)c2)CC1	inactive: 1.55%
O=C(NCC1(N2CCCCC2)CCCCC1)c1cncc(Br)c1	inactive: 3.85%
CCCOc1ccc(C(=O)NCC2(N(C)C)CCCCC2)cc1OC	inactive: -0.885%
COc1ccc(CN(CCCl)CCCl)cc1Cl	inactive: 4.1%
CN(C)c1cccc(C(=O)NCC2(N3CCCCC3)CCCCC2)c1	inactive: -13.8%
CC(C)c1ccc(NC2CCN(C(=O)OC(C)(C)C)CC2)cc1	inactive: -19.2%
COc1cc(OC)c(C(=O)NCC2(N(C)C)CCCCC2)cc1OC	inactive: 2.91%
O=C(NCC1(N2CCOCC2)CCCCC1)c1cc(F)c(F)cc1Cl	inactive: -1.4%
O=C(NCC1(N2CCCCC2)CCCCC1)c1cccc(C(F)(F)F)c1	inactive: -2.4%
CC(C)c1ccc(C(=O)NCC2(N3CCOCC3)CCCCC2)cc1	inactive: -9%
COc1ccc(NC2CCN(C(=O)OC(C)(C)C)CC2)cc1	inactive: 1.57%
CN1CCN(CCOC(=O)C(O)(c2ccccc2)c2ccccc2)CC1	inactive: 9.98%
O=C(NCC1(N2CCOCC2)CCCCC1)c1cc(=O)[nH]c2ccccc12	inactive: -0.528%
COc1cc(C(=O)NCC2(N3CCCCC3)CCCCC2)ccc1OC(F)F	inactive: -8.85%
O=C(NCC1(N2CCCCC2)CCCCC1)c1ccc(OC(F)F)cc1	inactive: -6.5%
O=C(NCC1(N2CCCCC2)CCCCC1)c1cccc([N+](=O)[O-])c1	inactive: 1.67%
CSc1ccc(C(=O)NCC2(N3CCOCC3)CCCCC2)cc1	inactive: 0.345%
CCN1CCC(Nc2ccc(Cl)cc2)CC1	inactive: -3.08%
N#CC1(Nc2ccccc2)CCN(CCc2ccccc2)CC1	inactive: -6.96%
CCOC(=O)N1CCC(Nc2cccc(C)c2)CC1	inactive: 4.88%

SMILES	activation
COc1cc(C(=O)NCC2(N(C)C)CCCCC2)ccc1OC(F)F	inactive: -2.06%
CCOc1ccc(C)cc1CN(CCCl)CCCl	inactive: -2.72%
O=C1CCN(Cc2ccccc2)CC1	inactive: -8.1%
CCCCOc1ccc(C(=O)NCC2(N3CCOCC3)CCCCC2)cc1	inactive: -3.43%
O=P1(N(CCCl)CCCl)SCCCS1	inactive: 0.874%
O=C(NCC1(N2CCCCC2)CCCCC1)c1ccc(F)cc1	inactive: -5.69%
CCOC(=O)N1CCC(Nc2ccc(F)cc2)CC1	inactive: -3.26%
COc1ccc(NC2CCN(CCc3ccccc3)CC2)c(OC)c1	inactive: 0.717%
O=C(NCC1(N2CCOCC2)CCCCC1)c1cc2ccccc2o1	inactive: -5.46%
O=C(NCC1(N2CCCCC2)CCCCC1)c1ccc(Cl)nc1	inactive: -10.1%
Cc1cc(C)cc(N(C(=O)c2ccccc2)C2CCN(C(=O)OC(C)(C)C)CC2)c1	inactive: -3.75%
CCOC(=O)N1CCC(Nc2ccc(OC)cc2)CC1	inactive: -1.17%
O=C(NCC1(N2CCCCC2)CCCCC1)c1ccc(Cl)s1	inactive: -4.11%
N#CC1(Nc2ccccc2)CCN(Cc2ccccc2)CC1	inactive: -3.62%
O=C(OC1CN2CCC1CC2)C1c2ccccc2Oc2ccccc21 (stereo not drawn)	inactive: 2.09%
COc1ccc(Cl)cc1C(=O)NCC1(N2CCOCC2)CCCCC1	inactive: -7.44%
O=C(NCC1(N2CCCCC2)CCCCC1)c1ccc(=O)[nH]c1	inactive: -2.48%
O=C(NCC1(N2CCCCC2)CCCCC1)c1cccs1	inactive: 5.29%
COc1ccc(C(=O)NCC2(N3CCCCC3)CCCCC2)cc1	inactive: 3.47%
CC(C)(C)OC(=O)N1CCC(N(C(=O)c2ccccc2)c2ccc(F)cc2)CC1	inactive: -5.31%
COc1ccc(C(=O)NCC2(N3CCCCC3)CCCCC2)c(OC)c1OC	inactive: 2.61%
CSc1ccccc1C(=O)NCC1(N2CCCCC2)CCCCC1	inactive: -6.45%
Cc1cccc(NC2(C#N)CCN(Cc3ccccc3)CC2)c1	inactive: -5.51%
